Structures are written as SMILES. The list shows a part of the results, in another mix than the full data. Calls of active or inactive are those of the source.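 How the source made its calls: active means every replicate reaching a set inhibition limit, whatever the replicate mean (cut at about 25% in these data); inconclusive means mean inhibition reaches that limit but some replicates miss it; inactive means the rest.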

Sequences of proteins named here, by UniProt entry; tags and fusion partners are left off.
UniProt P42568, whole entry: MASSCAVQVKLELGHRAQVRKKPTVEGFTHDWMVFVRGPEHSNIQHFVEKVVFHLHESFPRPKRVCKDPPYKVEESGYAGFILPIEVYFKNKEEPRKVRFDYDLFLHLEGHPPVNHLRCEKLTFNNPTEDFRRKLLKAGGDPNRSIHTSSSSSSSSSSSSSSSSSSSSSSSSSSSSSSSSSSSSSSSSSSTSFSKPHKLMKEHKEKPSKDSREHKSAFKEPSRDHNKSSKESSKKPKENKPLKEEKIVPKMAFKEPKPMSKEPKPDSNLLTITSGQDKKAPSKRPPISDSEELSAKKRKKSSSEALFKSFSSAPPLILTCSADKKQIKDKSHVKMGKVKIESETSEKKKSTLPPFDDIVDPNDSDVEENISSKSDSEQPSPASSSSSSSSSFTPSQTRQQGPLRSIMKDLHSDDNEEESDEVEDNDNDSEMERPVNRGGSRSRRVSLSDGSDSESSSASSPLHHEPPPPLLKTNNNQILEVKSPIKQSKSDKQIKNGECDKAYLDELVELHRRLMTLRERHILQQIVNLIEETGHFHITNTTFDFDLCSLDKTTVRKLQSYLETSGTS

This assay concerns the target Protein AF-9 (Homo sapiens) (UniProt P42568). Put plainly: MLL-AF4/AF9 protein interaction blockers – biochemical, AlphaScreen, biotin-AF4 peptide, FLAG-AF9, single point, primary screen (AID 651704).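 Further: 0% = plate neutral control median and 100% = total signal loss.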 The settings on record: biotin-AF4 peptide binding to FLAG-AF9, at 10 µM, stronger effect = higher value. (Alpha assays give light when donor and acceptor beads are brought close together.)
As for `O=[As](O)(O)c1cccnc1`, the inhibition was inactive: -1.41%. For `COc1cc(C(=O)NCC2(N3CCOCC3)CCCCC2)cc(Cl)c1OC(C)C`, the inhibition is inactive: 2.75%. Then `CCOC(=O)c1ccc(NP(C)(=O)Oc2cc(C)cc(C)c2)cc1` (stereo unspecified), with inactive: -3.37%; and `Cc1cc(C)cc(OP(C)(=O)Nc2ccc(C)cc2C)c1` (stereo unspecified), with inactive: -17.2%. Then `O=[As](O)(c1cccc(O)c1)c1cccc(O)c1`, with inactive: 12.4%.

Turning to `CCCOP(=S)(Nc1nc(N)cc(=O)[nH]1)OCCC`, the inhibition was inactive: 0.275%. Next, `Nc1cccc2c([As](=O)(O)O)cccc12`: inactive: -2.88%. Regarding `CP(=O)(Nc1cccc(Br)c1)Oc1ccccc1` (stereo unspecified), the inhibition is inactive: -0.471%. Regarding `CCOP(=O)(Nc1cccc2ccccc12)OCC`, the inhibition is inactive: -1.26%. Then `CCOP(=O)(Nc1ccc(C)cn1)OCC`, with inactive: -0.317%. Next, `O=[N+]([O-])c1cc([N+](=O)[O-])c(-n2nnc3ccccc32)c([N+](=O)[O-])c1`: inactive: -1.15%; `CCOP(=O)(NC(=NC(C)c1ccccc1)NC(C)c1ccccc1)OCC` (stereo unspecified): inactive: 0.0145%. Then `Nc1ccc(CCCCOc2ccccc2)cc1.O=[N+]([O-])c1cc([N+](=O)[O-])c(O)c([N+](=O)[O-])c1`, with inactive: 13.4%; and `CCC1=CC2Cc3nc4ccc(Cl)cc4c(N)c3C(C1)C2` (stereo unspecified), with inactive: 18.9%; and `O=C(O)C(O)c1ccc(N(CCCl)CCCl)cc1.c1ccncc1` (stereo unspecified), with inactive: 4.15%.

Take `CC(C)(C)C(=O)NC(Sc1ncccn1)C(Cl)(Cl)Cl` (stereo unspecified): the inhibition is inactive: 1.07%. As for `O=P1(N(CCCl)CCCl)NCCC(C(F)(F)F)O1` (stereo unspecified), the inhibition was inactive: -1.18%. Regarding `CN(Cc1cccnc1)C(=O)COc1ccc(Cl)c(Cl)c1.O=[N+]([O-])c1cc([N+](=O)[O-])c(O)c([N+](=O)[O-])c1`, the inhibition is inactive: -0.744%. As for `COc1ccccc1CNC(=O)COC(=O)C(O)(c1ccccc1)c1ccccc1`, the inhibition was inactive: -2.32%. Turning to `O=[N+]([O-])c1cc([N+](=O)[O-])c(-c2cnn(-c3ccccc3)c2)c([N+](=O)[O-])c1`, the inhibition was inactive: 4.88%.

With `Cc1ccc(S(=O)(=O)N(CCCN)CCCc2c(C)nc(N)[nH]c2=O)cc1.O=[N+]([O-])c1cc([N+](=O)[O-])c(O)c([N+](=O)[O-])c1`, the inhibition is inactive: -5.87%. Then `CC(C)/C=N\N=C(\N)N[N+](=O)[O-]`, with inactive: -0.523%. For `CN(C(=O)Cc1ccc(Cl)c(Cl)c1)[C@@H]1CCCC[C@H]1N1CCCC1`, the inhibition is inactive: -2.74%.

Consider `CC1CCC(C(C)C)C(OP(=O)(Nc2ccccn2)c2ccccc2)C1` (stereo unspecified), for which the inhibition is inactive: -3.25%. On to `Cc1ccc(C(=O)OC2CN3CCC2CC3)cc1` (stereo unspecified), for which the inhibition was inactive: 0.648%.

On to `CCCC1OP(=O)(Nc2ccccc2)OCC1CC` (stereo unspecified), for which the inhibition was inactive: 3.26%. Then `O=C(/C=C/c1ccccc1)OC1CN2CCC1CC2` (stereo unspecified), with inactive: 2.51%. Next, `CCOC(=O)C(CC)C1=NC(C)(C)Cc2ccccc21.O=[N+]([O-])c1cc([N+](=O)[O-])c(O)c([N+](=O)[O-])c1` (stereo unspecified): inactive: -2.46%; `CN(C)C1(CNC(=O)c2ccc(S(C)(=O)=O)cc2)CCCCC1`: inactive: 0.845%; `O=[N+]([O-])c1cc([N+](=O)[O-])c(Nc2nnnn2CCO)c([N+](=O)[O-])c1`: inactive: 1.06%. Next, `CN1CCCCC1COC(=O)C1(O)c2ccccc2CCc2ccccc21` (stereo unspecified): inactive: 2.23%; `COc1ccc(-c2ccccn2)cc1.O=[N+]([O-])c1cc([N+](=O)[O-])c(O)c([N+](=O)[O-])c1`: inactive: -7.09%; `O=[As](O)(c1cccs1)c1cccs1`: inactive: -0.927%. As to `NS(=O)(=O)c1cccc(NC(=O)COC(=O)C(O)(c2ccccc2)c2ccccc2)c1`, the inhibition is inactive: 2.28%.

On to `CCCOc1ccc(NP(C)(=O)Oc2ccc(Cl)cc2)cc1` (stereo unspecified), for which the inhibition was inactive: 1.98%. Regarding `Nc1cccc([As](=O)(O)c2ccccc2)c1`, the inhibition was inactive: -1.54%.

One may read the inhibition as the drop in the measured response relative to a control, in per cent.

These data come from PubChem BioAssay AID651704 (Broad Institute, 2012).
